AlphaSeq binding of Ab-14 light chain variants to a spike HR2 peptide

Target: peptide PDVDLGDISGINAS, taken from heptad repeat 2 (HR2) of SARS-CoV-2 spike.

Ab-14 is the parent antibody, in scFv form: VH, then three GGGGS repeats, then VL. The heavy chain is unchanged in all variants.
VH: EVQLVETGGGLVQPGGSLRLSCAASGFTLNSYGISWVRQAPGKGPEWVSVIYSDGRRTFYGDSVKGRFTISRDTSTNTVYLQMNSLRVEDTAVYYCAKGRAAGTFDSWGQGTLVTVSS
VL: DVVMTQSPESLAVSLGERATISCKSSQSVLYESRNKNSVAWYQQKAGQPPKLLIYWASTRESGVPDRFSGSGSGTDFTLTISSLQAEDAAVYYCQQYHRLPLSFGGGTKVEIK

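The parent was found by panning a naive human phage display library on the peptide. In library AAYL50, one, two or three CDR residues were substituted; doubles and triples were drawn at random. AlphaSeq pools MATa yeast showing the antibodies with MATalpha yeast showing the peptide. The frequency of each diploid, read from paired DNA barcodes, reflects how well the two displayed proteins bind. Scores were corrected for input abundance and mapped to Kd with protein pairs of known affinity run in the same pool. The assay was run in three technical replicates.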

Positions count from residue 1 of the parent VL; A40I puts I in place of A.
Values are apparent Kd, the geometric mean of the replicates that gave a signal; lower means stronger binding.
A pair that was not seen in any replicate is written "nd"; this usually means weak binding, but a binder can also be missed.
Background: pairings of library AAYL50 with three empty control strains gave a value in 18% of cases (median 15 µM, 5th percentile 970 nM). Values in that range, when seen in few replicates, are hard to tell from nonspecific mating. For each scFv, signals with the empty controls are counted beside the result.

| Kd (apparent) | replicates with signal | empty controls | changes |
|---|---|---|---|
| 4.3 µM | 1 of 3 | 1 of 9 | A40I E61P R99H |
| 280 nM | 3 of 3 | 4 of 9 | N37S S58V R99A |
| nd | 0 of 3 | 0 of 9 | R34L N37D A57Q |
| nd | 0 of 3 | 1 of 9 | E32S A57V L100R |
| 2.1 µM | 3 of 3 | 2 of 9 | S25K S58Q R99W |
| nd | 0 of 3 | 0 of 9 | V29T P101N |
| 15 µM | 3 of 3 | 7 of 9 | V29P L30G L102V |
| nd | 0 of 3 | 1 of 9 | E61T H98Y L100D |
| 14 nM | 3 of 3 | 0 of 9 | L30S S33F P101T |
| 82 µM | 2 of 3 | 3 of 9 | S62Q Q95C Q96H |
| 43 µM | 2 of 3 | 3 of 9 | S25D S58P Y97L |
| 6.5 nM | 3 of 3 | 1 of 9 | K36F A57T P101A |
| 53 µM | 2 of 3 | 4 of 9 | Y31H V39R A57Y |
| 5.4 µM | 3 of 3 | 3 of 9 | S58A R60H |
| 770 µM | 1 of 3 | 2 of 9 | S26D P101C L102S |
| 120 nM | 2 of 3 | 0 of 9 | R34L K36Y L102Y |
| nd | 0 of 3 | 0 of 9 | L100E S103M |
| nd | 0 of 3 | 2 of 9 | K24E V39D A40R |
| 4.4 µM | 3 of 3 | 1 of 9 | V29Y Y31F N37V |
| 94 nM | 3 of 3 | 4 of 9 | K24F T59I S103K |
| 16 µM | 2 of 3 | 1 of 9 | S26C S28E Y97L |
| 160 nM | 3 of 3 | 2 of 9 | Q27A Y31M S103M |
| 2.0 µM | 3 of 3 | 3 of 9 | L30C S58N Q95N |
| nd | 0 of 3 | 0 of 9 | K24G S38E S58I |
| 18 nM | 3 of 3 | 0 of 9 | N35M E61L P101Q |
| 7.3 nM | 3 of 3 | 1 of 9 | S26V A57G S62I |
| 3.0 µM | 1 of 3 | 1 of 9 | S58D Q95R Y97A |
| nd | 0 of 3 | 0 of 9 | Q27Y A57W H98D |
| 9.2 µM | 2 of 3 | 4 of 9 | T59G S62L Q96P |
| 610 pM | 3 of 3 | 7 of 9 | S25Y R34A W56D |
| nd | 0 of 3 | 1 of 9 | K24A Q96R P101D |
| nd | 0 of 3 | 2 of 9 | A40M A57Y |
| 7.5 nM | 3 of 3 | 0 of 9 | S26D Y31H K36R |
| 8.6 nM | 3 of 3 | 0 of 9 | V29S E32A R99P |
| nd | 0 of 3 | 0 of 9 | W56N E61P P101H |
| 3.9 nM | 3 of 3 | 0 of 9 | L30H R34T T59L |
| 11 µM | 1 of 3 | 2 of 9 | N37T A57I S58M |
| nd | 0 of 3 | 1 of 9 | L30N Y97G R99V |
| 17 µM | 2 of 3 | 3 of 9 | R34N N35Y H98K |
| 25 nM | 3 of 3 | 0 of 9 | S26R W56L S103Y |
| 160 nM | 3 of 3 | 3 of 9 | K24M Q27K V29Y |
| 56 nM | 3 of 3 | 1 of 9 | R34E R99G |
| 160 µM | 1 of 3 | 2 of 9 | V29C E61M Y97Q |
| 4.2 nM | 3 of 3 | 0 of 9 | Q27E S33H W56Q |
| 9.4 µM | 2 of 3 | 4 of 9 | K24Y V39S A40M |
| 14 nM | 3 of 3 | 1 of 9 | S62T L102D |
| nd | 0 of 3 | 0 of 9 | S25M E32M A40M |
| 430 µM | 3 of 3 | 3 of 9 | R34N K36Y Q95W |
| nd | 0 of 3 | 1 of 9 | A40Y Q96G P101Y |
| 4.7 µM | 1 of 3 | 3 of 9 | A57W S58T E61P |
| nd | 0 of 3 | 0 of 9 | K36S S58Y L100G |
| 2.9 µM | 3 of 3 | 1 of 9 | V29A L100M |
| 41 µM | 1 of 3 | 2 of 9 | K36A P101T L102W |
| nd | 0 of 3 | 0 of 9 | S38C A57M S58M |
| 3.7 µM | 1 of 3 | 1 of 9 | L30H L100F L102C |
| 16 nM | 3 of 3 | 0 of 9 | L30M E61Q Q95K |
| 31 µM | 1 of 3 | 1 of 9 | V39N A57T P101K |
| 3.7 nM | 3 of 3 | 4 of 9 | S25T S38C W56N |
| nd | 0 of 3 | 1 of 9 | R60Q Y97H |
| 4.4 nM | 3 of 3 | 1 of 9 | S28T R34Q |
| nd | 0 of 3 | 1 of 9 | L30N R99D L102Q |
| 22 nM | 3 of 3 | 0 of 9 | S26I S103A |
| 140 µM | 1 of 3 | 1 of 9 | E32I E61R |
| 14 nM | 3 of 3 | 3 of 9 | L30W R34H L102K |
| 160 nM | 3 of 3 | 0 of 9 | K36M A57Q Q95K |
| nd | 0 of 3 | 0 of 9 | S25N A40P L100F |
| nd | 0 of 3 | 1 of 9 | E32P A40E A57Y |
| nd | 0 of 3 | 1 of 9 | S25Y S38V P101I |
| nd | 0 of 3 | 3 of 9 | S25Q R60N |
| 9.1 nM | 3 of 3 | 1 of 9 | R34G N35A S38D |
| 4.1 nM | 3 of 3 | 4 of 9 | L30S Y97D S103K |
| 2.9 µM | 2 of 3 | 6 of 9 | Q27S V39Y S103M |
| 340 nM | 3 of 3 | 1 of 9 | N37W A57V S58R |
| 91 µM | 1 of 3 | 1 of 9 | V39G A57W |
| 1.5 µM | 1 of 3 | 0 of 9 | Y31F R60E L100D |
| 450 nM | 3 of 3 | 1 of 9 | K24W V29N K36N |
| 12 nM | 3 of 3 | 1 of 9 | K24S S25E Q27T |

The first 9 variants above that were never detected:

| changes | Kd (apparent) | replicates with signal | empty controls |
|---|---|---|---|
| R34L N37D A57Q | nd | 0 of 3 | 0 of 9 |
| E32S A57V L100R | nd | 0 of 3 | 1 of 9 |
| V29T P101N | nd | 0 of 3 | 0 of 9 |
| E61T H98Y L100D | nd | 0 of 3 | 1 of 9 |
| L100E S103M | nd | 0 of 3 | 0 of 9 |
| K24E V39D A40R | nd | 0 of 3 | 2 of 9 |
| K24G S38E S58I | nd | 0 of 3 | 0 of 9 |
| Q27Y A57W H98D | nd | 0 of 3 | 0 of 9 |
| K24A Q96R P101D | nd | 0 of 3 | 1 of 9 |

Data: MIT Lincoln Laboratory AlphaSeq set, Engelhart et al. 2022, doi:10.1038/s41597-022-01779-4, as distributed in FLAb.